{"source": "ChEMBL document CHEMBL4495565", "about": "“Cytopathic SARS-Cov2 screening on VERO-E6 cells in a large repurposing effort” (2020)", "tested_on": "SARS-CoV-2", "experiment": "Antiviral activity determined as inhibition of SARS-CoV-2 induced cytotoxicity of VERO-6 cells at 10 uM after 48 hours exposure to 0.01 MOI SARS CoV-2 virus by high content imaging", "details": "Chlorocebus sabaeus, Vero C1008"}
{"smiles": "CN(CCCl)CCCl", "values": [{"measurement": "inhibition", "value": 0.22, "unit": "%"}]}
